The text below walks through data of ChEMBL document CHEMBL5579887, “Structure-Activity Relationship Studies of Substituted 2-Phenyl-1,2,4-triazine-3,5(2H,4H)-dione Analogues: Development of Potent eEF2K Degraders against Triple-Negative Breast Cancer” (J Med Chem, 2024).

Activity calls are given as the source filed them. The rule behind the calls is not given here.

The Cmax is the maximum level reached in the sampled fluid or tissue.

For data set [1], the target named is T1, Eukaryotic elongation factor 2 kinase (Homo sapiens) (UniProt O00418).
T1 sequence (whole entry): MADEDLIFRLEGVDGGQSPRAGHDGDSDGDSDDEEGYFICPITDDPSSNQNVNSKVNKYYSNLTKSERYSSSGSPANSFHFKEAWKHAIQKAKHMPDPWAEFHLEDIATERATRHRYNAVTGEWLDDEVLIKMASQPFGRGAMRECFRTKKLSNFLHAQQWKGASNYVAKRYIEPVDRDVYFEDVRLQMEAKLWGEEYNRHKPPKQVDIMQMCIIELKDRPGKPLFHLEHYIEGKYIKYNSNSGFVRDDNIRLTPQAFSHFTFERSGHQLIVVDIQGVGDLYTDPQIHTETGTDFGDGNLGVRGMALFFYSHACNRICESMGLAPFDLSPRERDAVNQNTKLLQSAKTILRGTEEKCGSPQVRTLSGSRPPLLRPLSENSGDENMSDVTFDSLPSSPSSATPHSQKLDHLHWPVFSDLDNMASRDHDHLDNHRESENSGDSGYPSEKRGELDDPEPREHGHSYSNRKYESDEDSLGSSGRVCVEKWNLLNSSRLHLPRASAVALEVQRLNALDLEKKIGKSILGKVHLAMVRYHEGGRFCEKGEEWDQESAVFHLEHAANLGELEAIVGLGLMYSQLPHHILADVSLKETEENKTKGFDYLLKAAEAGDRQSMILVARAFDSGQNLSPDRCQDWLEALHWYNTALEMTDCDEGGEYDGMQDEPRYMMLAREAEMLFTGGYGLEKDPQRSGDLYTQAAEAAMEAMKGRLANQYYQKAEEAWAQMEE
As to the kind of experiment: Inhibition of eEF2K (unknown origin) using NH 125 as inhibitor.

The subject of a further data set is MDA-MB-231. In words: In vivo antitumor activity against human MDA-MB-231 cells xenografted in female nude mouse assessed as tumor growth inhibition at 10 mg/kg, ip administered every other day relative to control. The data set is classed as functional. On the technique in general: Xenograft models place foreign cells or tissue in a host animal.
The nature of data set [2]: Half life in female BALB/c mouse at 5 mg/kg, iv measured after 24 hrs by LC/MS analysis. It counts as ADME, organism-based. The conditions noted are these: in vivo.
Data set [3] is described as follows: Cmax in female BALB/c mouse at 5 mg/kg, iv measured after 24 hrs by LC/MS analysis. The conditions noted are these: in vivo. It counts as ADME, organism-based.
Data set [4] is described as follows: Volume of distribution in female BALB/c mouse at 5 mg/kg, ip measured after 24 hrs by LC/MS analysis. It counts as ADME, organism-based. The conditions noted are these: in vivo.
The nature of data set [5]: Volume of distribution in female BALB/c mouse at 10 mg/kg, po measured after 24 hrs by LC/MS analysis. The data set is classed as ADME, organism-based. The following applies: in vivo.
The nature of data set [6]: Clearance in female BALB/c mouse at 5 mg/kg, iv measured after 24 hrs by LC/MS analysis. It counts as ADME, organism-based. The conditions noted are these: in vivo.
Data set [7] can be described thus: Clearance in female BALB/c mouse at 5 mg/kg, ip measured after 24 hrs by LC/MS analysis. It counts as ADME, organism-based. The conditions noted are these: in vivo.
Data set [8] can be described thus: Clearance in female BALB/c mouse at 10 mg/kg, po measured after 24 hrs by LC/MS analysis. It counts as ADME, organism-based. The following applies: in vivo.
Data set [9] can be described thus: Toxicity in BALB/c mouse assessed as effect on heart size at 5 to 10 mg/kg, measured by H and E staining based analysis. It counts as organism-based. The conditions noted are these: in vivo, dose 5-10 mg/kg.
The nature of data set [10]: Toxicity in BALB/c mouse assessed as effect on heart weight at 5 to 10 mg/kg, measured by H and E staining based analysis. The following applies: in vivo, dose 5-10 mg/kg. The data set is classed as organism-based.
Data set [11] can be described thus: Toxicity in BALB/c mouse assessed as effect on liver weight at 5 to 10 mg/kg, measured by H and E staining based analysis. The following applies: in vivo, dose 5-10 mg/kg. The data set is classed as organism-based.
Data set [12] is described as follows: Toxicity in BALB/c mouse assessed as effect on liver size at 5 to 10 mg/kg, measured by H and E staining based analysis. The conditions noted are these: in vivo, dose 5-10 mg/kg. It counts as organism-based.
The nature of data set [13]: Toxicity in BALB/c mouse assessed as effect on spleen size at 5 to 10 mg/kg, measured by H and E staining based analysis. The conditions noted are these: in vivo, dose 5-10 mg/kg. The data set is classed as organism-based.
Data set [14] can be described thus: Toxicity in BALB/c mouse assessed as effect on spleen weight at 5 to 10 mg/kg, measured by H and E staining based analysis. The conditions noted are these: in vivo, dose 5-10 mg/kg. The data set is classed as organism-based.
A short description of data set [15]: Toxicity in BALB/c mouse assessed as effect on lung size at 5 to 10 mg/kg, measured by H and E staining based analysis. The data set is classed as organism-based. The following applies: in vivo, dose 5-10 mg/kg.
Data set [16] in a line: Toxicity in BALB/c mouse assessed as effect on lung weight at 5 to 10 mg/kg, measured by H and E staining based analysis. The data set is classed as organism-based. The conditions noted are these: in vivo, dose 5-10 mg/kg.
The nature of data set [17]: Toxicity in BALB/c mouse assessed as effect on kidney size at 5 to 10 mg/kg, measured by H and E staining based analysis. The data set is classed as organism-based. The following applies: in vivo, dose 5-10 mg/kg.
The nature of data set [18]: Toxicity in BALB/c mouse assessed as effect on kidney weight at 5 to 10 mg/kg, measured by H and E staining based analysis. The following applies: in vivo, dose 5-10 mg/kg. The data set is classed as organism-based.
Data set [19] can be described thus: Toxicity in BALB/c mouse assessed as effect on body weight at 5 to 10 mg/kg, measured by H and E staining based analysis. The data set is classed as organism-based. The following applies: in vivo, dose 5-10 mg/kg.
Data set [20] can be described thus: Renal toxicity in BALB/c mouse xenografted with human MDA-MB-231 cells assessed as effect on serum creatinine level at 5 to 10 mg/kg measured after 24 hrs by biochemical analysis. It counts as organism-based. The following applies: in vivo, dose 5-10 mg/kg.
A short description of data set [21]: Renal toxicity in BALB/c mouse xenografted with human MDA-MB-231 cells assessed as effect on serum urea level at 5 to 10 mg/kg measured after 24 hrs by biochemical analysis. The conditions noted are these: in vivo, dose 5-10 mg/kg. It counts as organism-based.
Data set [22] is described as follows: Hepatotoxicity in BALB/c mouse xenografted with human MDA-MB-231 cells assessed as effect on serum AST level at 5 to 10 mg/kg measured after 24 hrs by biochemical analysis. It counts as toxicity, organism-based. The conditions noted are these: in vivo, dose 5-10 mg/kg.
Data set [23] can be described thus: Hepatotoxicity toxicity in BALB/c mouse xenografted with human MDA-MB-231 cells assessed as effect on serum ALT level at 5 to 10 mg/kg measured after 24 hrs by biochemical analysis. The data set is classed as organism-based. The conditions noted are these: in vivo, dose 5-10 mg/kg.
Data set [24] is described as follows: Hepatotoxicity in BALB/c mouse xenografted with human MDA-MB-231 cells assessed as effect on serum CK level at 5 to 10 mg/kg measured after 24 hrs by biochemical analysis. The data set is classed as toxicity, organism-based. The following applies: in vivo, dose 5-10 mg/kg.
The nature of data set [25]: Hepatotoxicity in BALB/c mouse xenografted with human MDA-MB-231 cells assessed as effect on serum LDH level at 5 to 10 mg/kg measured after 24 hrs by biochemical analysis. It counts as toxicity, organism-based. The conditions noted are these: in vivo, dose 5-10 mg/kg.
Data set [26] addresses T1, Eukaryotic elongation factor 2 kinase (Homo sapiens). As to the kind of experiment: Inhibition of eEF2K (unknown origin).

Take `CCCCCCCCCCCCCCCC[n+]1ccn(Cc2ccccc2)c1C`: the inhibition entry in [1] is “Active”.
For `CC(=O)O[C@H]1C(=O)[C@@]2(C)[C@H]([C@H](OC(=O)c3ccccc3)[C@]3(O)C[C@H](OC(=O)[C@H](O)[C@@H](NC(=O)c4ccccc4)c4ccccc4)C(C)=C1C3(C)C)[C@]1(OC(C)=O)CO[C@@H]1C[C@@H]2O` [PACLITAXEL], the result in the data set with MDA-MB-231 was Active.
As to `Cc1ccc(-n2nc(C(=O)N3CCCCC3)c(=O)n(Cc3ccccc3)c2=O)cc1C`, in data set [2], the t1/2 came out at 5.9 h. In data set [3], this compound showed a peak concentration (Cmax) of 549.3 ng/mL. Further, the Vd in [4] was 51.9 L/kg; in data set [5] it was 192.8 L/kg. For the same compound, the CL was determined as 96.7 mL/min/kg in [6], 288 mL/min/kg in data set [7] and 6518 mL/min/kg in [8]. Moreover, the Activity result in data set [9], in data set [10], in data set [11], in [12], in [13] and in [14] was “Non-Toxic” in each case. Moreover, the Activity result in data set [15], in data set [16], in data set [17], in [18], in data set [19] and in data set [20] was “Non-Toxic” in each case. Moreover, the Activity entry in data set [21], in [22], in data set [23], in data set [24] and in data set [25] was “Non-Toxic” each time.
As to `O=C(/C=C/c1cccc(C(F)(F)F)c1)c1cc2ccccc2oc1=O`, the inhibition result in data set [26] is “Active”.
